Consider 1 compound from paper PMC7801405, “Structure, substrate specificity, and catalytic mechanism of human D-2-HGDH and insights into pathogenicity of disease-associated mutations” (Cell Discovery, 2021).

In the assay the target is T1, D-2-hydroxyglutarate dehydrogenase (D-2-HGDH) (Homo sapiens, UniProt Q8N465).
T1 construct: gene D2HGDH
T1 sequence (Q8N465 51-521): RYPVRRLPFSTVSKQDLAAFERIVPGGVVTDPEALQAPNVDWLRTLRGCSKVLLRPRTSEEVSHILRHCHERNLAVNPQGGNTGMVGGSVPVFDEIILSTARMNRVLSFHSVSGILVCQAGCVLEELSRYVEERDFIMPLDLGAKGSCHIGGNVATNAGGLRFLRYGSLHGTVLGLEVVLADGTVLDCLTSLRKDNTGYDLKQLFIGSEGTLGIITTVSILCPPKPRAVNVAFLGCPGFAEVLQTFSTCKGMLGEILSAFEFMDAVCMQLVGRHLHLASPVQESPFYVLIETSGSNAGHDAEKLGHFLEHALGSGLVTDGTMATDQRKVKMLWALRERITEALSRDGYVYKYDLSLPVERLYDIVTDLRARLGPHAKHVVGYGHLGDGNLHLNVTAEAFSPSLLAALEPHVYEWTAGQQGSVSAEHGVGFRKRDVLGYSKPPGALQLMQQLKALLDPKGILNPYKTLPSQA

Take `Cc1cc2nc3c(=O)[nH]c(=O)nc-3n(C[C@H](O)[C@H](O)[C@H](O)COP(=O)(O)OP(=O)(O)OC[C@H]3O[C@@H](n4cnc5c(N)ncnc54)[C@H](O)[C@@H]3O)c2cc1C` [FAD]: the “crystal structure (2.20 Å), co-purified” value is on record as “In all the structures, there is a FAD non-covalently bound to the active site”.
